Here are results for 1 compound from patent US5262537A, “Derivatives of 4,5,6,7-tetrahydroimidazo-[4,5-c]pyridinyl-6-carboxylic acid” (priority 1993, dated 1993).

Amino acid sequences for entries named in this document (tags omitted). Residues count along the entry.
UniProt P35563, 24-483 limits assumed: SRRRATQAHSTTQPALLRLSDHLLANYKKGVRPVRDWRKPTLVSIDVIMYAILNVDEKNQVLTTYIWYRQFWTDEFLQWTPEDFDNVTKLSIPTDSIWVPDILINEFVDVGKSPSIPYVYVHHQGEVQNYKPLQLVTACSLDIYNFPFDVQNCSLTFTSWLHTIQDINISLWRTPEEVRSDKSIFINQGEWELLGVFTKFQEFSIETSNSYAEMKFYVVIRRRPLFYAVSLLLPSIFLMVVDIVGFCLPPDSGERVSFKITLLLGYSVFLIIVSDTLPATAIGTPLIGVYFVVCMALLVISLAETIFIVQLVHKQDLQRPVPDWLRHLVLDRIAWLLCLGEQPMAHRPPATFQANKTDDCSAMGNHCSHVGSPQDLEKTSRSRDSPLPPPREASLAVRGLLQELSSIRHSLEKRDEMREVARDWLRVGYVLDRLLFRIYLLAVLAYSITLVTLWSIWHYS

For one experiment, the system named is Ferret. Description: Cisplatin Ferret Assay--Antiemetic Screening. The settings on record: 0.1 mg/kg i.v., 30 minutes after cisplatin 10 mg/kg i.v.; percent reduction of emetic episodes vs controls, four hours; tested form: 2HCl.0.25H2O. It counts as in vivo, Male ferrets.
A further experiment addresses 5-HT3 (Rattus norvegicus, UniProt P35563). The settings on record: read-out: 5-HT3 IC50; 0.2 nM [3H]GR65630, rat entorhinal cortex, 40 minutes, room temperature; tested form: 2HCl.0.25H2O.

As to `COc1ccc(OC)c(NC(=O)[C@@H]2Cc3[nH]cnc3CN2C)c1`, the “Ferret Cisplatin Test % Prot, 0.1 mg/Kg” value with Ferret stood at 50%. Moreover, the IC50 at 5-HT3 was determined as 162 nM.
